Laboratory results from patent US20230203096A1, “EPHA4 TARGETING COMPOUNDS AND METHODS OF USE THEREOF” (priority 2020, published 2023).

Chains of the proteins cited; added tags and fusions are not shown. Residues count along the entry.
UniProt P54764, 29-209 C204A: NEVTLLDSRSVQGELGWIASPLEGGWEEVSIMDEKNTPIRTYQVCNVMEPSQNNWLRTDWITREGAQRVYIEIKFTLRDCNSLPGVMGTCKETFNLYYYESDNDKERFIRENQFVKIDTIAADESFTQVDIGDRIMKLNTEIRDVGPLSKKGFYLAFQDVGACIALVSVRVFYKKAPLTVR

Molecular target: T1, recombinant EphA4 ligand binding domain (Homo sapiens, UniProt P54764, C204A)
T1 construct: His tag (N); made in house; host or cells: E. coli Rosetta-Gami B(DE3), pET15b
Test: Isothermal titration calorimetry (ITC) against EphA4-LBD
Conditions: ITC with the ligand binding domain; Table 8
Description: Peptides were synthesized by using standard solid-phase synthesis protocol, using the BAL resin as anchoring for the C-terminal amines. Isothermal Titration Calorimetry (ITC) measurements were performed in a reverse fashion by titrating the protein into the ligand solution. Solution nuclear magnetic resonance (NMR) experiments were conducted on a 700 MHz Bruker Avance spectrometer equipped with a TCI cryoprobe. Each protein sample was dissolved into an NMR tube at a final concentration of 20 μM (1% DMSO-d6) in the presence of 20 μM of each compound.
The fragments were transformed into Rosetta-Gami B(DE3) competent cells and grown in LB medium at 37° C. with 100 μg/mL of ampicillin until reaching an OD600 of 0.6-0.7 followed by induction with 0.4 mM IPTG overnight at 20° C. Bacteria were then collected by centrifugation and lysed by sonication at 4° C. […] EphA4 LBD with ^13C^ε/^1H^ε-Met labeled was expressed like previously described but adding a suspension of 100 mg of ^13C^ε/^1H^ε-Methionine in 1 mL of DMSO per liter of LB medium, 10 minutes before induction. […] Transformation, expression, and purification of EphA3-LBD chimera was performed as described above for EphA4-LBD.
Isothermal titration calorimetry (ITC) measurements were performed using the Affinity ITC Autosampler from TA Instruments (New Castle, Del.). […]

Compound: COc1ccc2[nH]cc(CCNC(=O)[C@H](Cc3ccncc3)NC(=O)[C@H](Cc3ccc(Cl)cc3)NC(=O)[C@H](Cc3c[nH]c4ccc(O)cc34)NC(=O)CCCN)c2c1 [Compound 123C4, reference compound]
- Kd: 400 nM
